Measurements published in ChEMBL document CHEMBL5523684, “Development of a tetrahydroindazolone-based HDAC6 inhibitor with in-vivo anti-arthritic activity” (Bioorg Med Chem, 2024).

The chains behind the UniProt entries cited, without tags or fusion partners. Where a name states a change or a piece, a line headed by the entry shows the natural chain unless it says otherwise.
UniProt Q9UKV0: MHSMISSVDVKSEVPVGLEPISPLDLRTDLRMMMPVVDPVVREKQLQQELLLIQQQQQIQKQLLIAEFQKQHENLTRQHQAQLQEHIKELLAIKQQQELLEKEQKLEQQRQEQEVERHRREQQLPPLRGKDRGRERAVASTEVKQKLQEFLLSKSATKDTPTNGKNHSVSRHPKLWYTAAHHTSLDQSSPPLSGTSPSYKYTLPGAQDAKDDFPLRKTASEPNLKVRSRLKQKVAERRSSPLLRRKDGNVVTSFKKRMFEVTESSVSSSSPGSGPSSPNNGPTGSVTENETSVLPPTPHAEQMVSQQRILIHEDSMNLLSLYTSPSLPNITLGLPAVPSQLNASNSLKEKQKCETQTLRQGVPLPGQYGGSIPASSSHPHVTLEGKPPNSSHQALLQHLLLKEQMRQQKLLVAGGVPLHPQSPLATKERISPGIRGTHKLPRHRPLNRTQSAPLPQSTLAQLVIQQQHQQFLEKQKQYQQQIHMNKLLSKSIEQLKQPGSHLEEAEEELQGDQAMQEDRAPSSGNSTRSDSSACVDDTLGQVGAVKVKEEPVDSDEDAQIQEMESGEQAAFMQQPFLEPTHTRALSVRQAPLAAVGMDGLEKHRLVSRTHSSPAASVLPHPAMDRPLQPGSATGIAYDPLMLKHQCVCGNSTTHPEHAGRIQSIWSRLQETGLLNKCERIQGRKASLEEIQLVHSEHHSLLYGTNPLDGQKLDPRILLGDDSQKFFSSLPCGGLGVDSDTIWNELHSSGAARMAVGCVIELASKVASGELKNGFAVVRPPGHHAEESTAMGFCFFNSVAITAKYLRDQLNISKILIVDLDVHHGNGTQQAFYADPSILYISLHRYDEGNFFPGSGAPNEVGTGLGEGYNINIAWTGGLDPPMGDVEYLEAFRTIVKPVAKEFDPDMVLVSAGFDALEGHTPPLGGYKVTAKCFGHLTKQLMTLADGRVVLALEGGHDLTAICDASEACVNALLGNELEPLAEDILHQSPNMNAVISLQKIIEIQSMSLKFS

Target: Histone deacetylase 9 (Homo sapiens, UniProt Q9UKV0)
Assay: Inhibition of human recombinant HDAC9 using Boc-Lys(tri-fluoroacetyl)-AMC as substrate by fluorescence based analysis

**Q.** With CC(/C=C/C(=O)NO)=C\[C@@H](C)C(=O)c1ccc(N(C)C)cc1 [TRICHOSTATIN] as the molecule, how does the pIC50 read?
**A.** Its pIC50 is 5.32.

pIC50: −log10 of the molar value.
